ChEMBL document CHEMBL1143565, “Pyrido[2,3-d]pyrimidin-7-ones as specific inhibitors of cyclin-dependent kinase 4” (J Med Chem, 2005)

Assays:
[1] = target: Cyclin-dependent kinase 2/cyclin A (Homo sapiens, UniProt P24941); experiment: Inhibition of [32P]ATP binding to Cyclin dependent kinase 2-cyclin A; type: protein-complex assay
Outline: (§1)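 Human recombinant Cdk–cyclin holoenzymes expressed in insect cells via baculovirus. Each reaction held 20 ng enzyme, 1 µg GST-retinoblastoma substrate and inhibitor dilutions in 20 mM Tris pH 7.4, 50 mM NaCl, 1 mM DTT, 10 mM MgCl2. Started with [32P]ATP (0.25 µCi), at 25 µM for Cdk4 or 12 µM for Cdk2/E, Cdk2/A and Cdc2/B. Ran 15 min at 25 °C. Stopped with TCA and precipitated ≥1 h at 4 °C.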

[2] = target: Cyclin-dependent kinase 2/cyclin E (Homo sapiens, UniProt P24941); experiment: Inhibition of [32P]ATP binding to Cyclin dependent kinase 2-cyclin E; type: protein-complex assay; outline: as §1

IC50 [1]: > 5 µM | IC50 [2]: > 5 µM
Structure (SMILES): Cc1cc(=O)n(C2CCCC2)c2nc(Nc3ccc(N4CCNCC4)cc3)ncc12
